Experimental findings from patent publication US11311528B2, “Oxo-tetrahydro-isoquinoline carboxylic acids as STING inhibitors” (Merck Sharp & Dohme Corp., priority 2018, dated 2022) are described below.

Sequences of proteins named here, by UniProt entry; tags and fusion partners are left off. A change or cut given only in a name is not applied to a line headed by its entry.
UniProt Q86WV6: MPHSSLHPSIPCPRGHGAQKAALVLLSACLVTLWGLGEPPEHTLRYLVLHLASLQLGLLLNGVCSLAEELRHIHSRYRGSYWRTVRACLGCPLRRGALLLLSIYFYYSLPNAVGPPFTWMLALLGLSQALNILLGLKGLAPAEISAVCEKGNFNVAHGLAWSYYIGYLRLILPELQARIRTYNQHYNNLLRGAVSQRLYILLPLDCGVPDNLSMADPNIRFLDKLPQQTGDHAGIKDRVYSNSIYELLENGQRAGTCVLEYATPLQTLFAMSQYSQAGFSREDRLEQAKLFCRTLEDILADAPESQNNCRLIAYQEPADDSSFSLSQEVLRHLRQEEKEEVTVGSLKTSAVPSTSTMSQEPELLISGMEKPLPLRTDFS

Usually pIC50 stands for the IC50 on a negative log10 scale, so that one unit is a factor of ten.

pIC50: −log10 of the molar value.

In this experiment the target is STING (Homo sapiens, UniProt Q86WV6). The settings on record: read-out: THP1 Cell IC50; inhibition of cGAMP mediated IFNb production in THP1 cells, six hours preincubation.

Turning to `CC(C)(C)c1ccc(N2C(=O)c3cc(F)ccc3[C@H](C(=O)O)[C@H]2c2ccc3c(c2)OCCO3)cc1Cl` (single isomer, unassigned) [Compound 1-2, (3S,4S or 3R,4R)-2-(4-(tert-butyl)-3-chlorophenyl)-3-(2,3-dihydrobenzo[b][1,4]dioxin-6-yl)-7-fluoro-oxo-1,2,3,4-tetrahydroisoquinoline-4-carboxylic acid], the negative-log IC50 (pIC50) was 5.00.
